# Only a part is listed here, and it is no random draw. Some salts or complexes appear as unconnected parts, following the source record. The source made the active and inactive calls.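 How the source made its calls: active means fluorescence ratio B-score, a plate-corrected score, at least three library SD, with initial intensity B-score within 5 SD; inactive means the rest.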
# Protein sequences, listed by entry. Tags and fused reporters are not part of them.
# UniProt P51787, whole entry: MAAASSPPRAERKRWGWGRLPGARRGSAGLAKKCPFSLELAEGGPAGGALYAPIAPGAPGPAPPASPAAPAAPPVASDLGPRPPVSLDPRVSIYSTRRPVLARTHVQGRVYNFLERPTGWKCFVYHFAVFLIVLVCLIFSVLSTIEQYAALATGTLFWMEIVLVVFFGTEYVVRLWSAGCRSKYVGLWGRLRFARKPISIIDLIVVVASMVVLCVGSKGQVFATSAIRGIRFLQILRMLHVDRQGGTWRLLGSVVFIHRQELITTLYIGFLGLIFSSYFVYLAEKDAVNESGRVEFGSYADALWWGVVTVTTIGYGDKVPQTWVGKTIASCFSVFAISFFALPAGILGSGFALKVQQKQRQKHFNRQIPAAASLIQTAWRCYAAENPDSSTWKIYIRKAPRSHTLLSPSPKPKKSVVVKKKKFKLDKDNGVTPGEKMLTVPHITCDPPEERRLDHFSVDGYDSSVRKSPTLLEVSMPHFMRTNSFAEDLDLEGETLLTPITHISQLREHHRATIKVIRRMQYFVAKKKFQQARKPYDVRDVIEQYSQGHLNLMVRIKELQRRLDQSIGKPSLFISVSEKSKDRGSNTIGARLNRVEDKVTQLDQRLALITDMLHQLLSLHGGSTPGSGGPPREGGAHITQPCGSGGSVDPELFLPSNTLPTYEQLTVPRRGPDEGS
# Target: Potassium voltage-gated channel subfamily KQT member 1 (Homo sapiens) (UniProt P51787)
# Assay: potentiators or activators of KCNQ1 channel, primary screen, cell-based, thallium flux, high-throughput (AID 2648)
# Settings: CHO-K1 KCNQ1, thallium flux FluxOR fluorescence; at 10 µM
row,SMILES,outcome
1,O=[N+]([O-])c1ccc(OP2(=O)COCCO2)cc1 (stereo not given),inactive
2,CC(=O)NC(SC(=S)N(C)C)C(Cl)(Cl)Cl (stereo not given),inactive
3,O=[N+]([O-])c1cc([N+](=O)[O-])c(NCC2CCS(=O)(=O)C2)c([N+](=O)[O-])c1 (stereo not given),inactive
4,Cc1cc(-c2cccc3ccccc23)c(C)cn1.O=[N+]([O-])c1cc([N+](=O)[O-])c(O)c([N+](=O)[O-])c1,inactive
5,O=[As](O)(c1ccccc1)c1ccc(O)cc1,inactive
6,Nc1ccc([As](=O)(O)c2ccc([N+](=O)[O-])cc2)cc1,inactive
7,C(Cc1nn[nH]n1)Cc1nn[nH]n1,inactive
8,O=C(OC1CN2CCC1CC2)c1cccc(Cl)c1 (stereo not given),inactive
9,CP(=O)(Nc1ccc(SC(F)(F)F)cc1)Oc1ccc(F)cc1 (stereo not given),inactive
10,CC(C)C(=O)NC(Sc1ccccc1)C(Cl)(Cl)Cl (stereo not given),inactive
11,O=P(Nc1nccs1)(c1ccccc1)c1ccccc1,inactive
12,CCOP(C)(=S)SCC(=O)NC(C)(CC)C(=O)O (stereo not given),inactive
13,c1nnnn1CCn1cnnn1,inactive
14,CP(=O)(Nc1ccc2c(c1)OCCO2)Oc1ccccc1 (stereo not given),inactive
15,CCOc1ccc(C2=NCC(CBr)S2)cc1 (stereo not given),inactive
16,O=P1(Nc2nc3ccc(Cl)cc3s2)COc2ccccc2O1 (stereo not given),inactive
17,CP(=O)(Nc1ccccc1F)Oc1ccccc1 (stereo not given),inactive
18,CC(C)c1ccc(OP(C)(=O)Nc2ccc(SC(F)(F)F)cc2)cc1 (stereo not given),inactive
19,CC(C)(C)C(=O)NC(Sc1ccccc1)C(Cl)(Cl)Cl (stereo not given),inactive
20,O=C(OC1CN2CCC1CC2)c1ccc([N+](=O)[O-])cc1 (stereo not given),inactive
21,CC(=O)c1ccc(N2CC2c2ccncc2)cc1 (stereo not given),inactive
22,C[C@@H]1C=CCP(=O)(Oc2ccccc2)O1 (stereo not given in full),inactive
23,C[C@H]1OP(=O)(Oc2ccccc2)C[C@@H]2O[C@@H]21 (stereo not given in full),inactive

row,SMILES,outcome
1,O=C(OCCN1CCN(CCOCc2ccccc2)CC1)C(O)(c1ccccc1)c1ccccc1,inactive
2,CC(=O)Nc1ccc(Oc2c([N+](=O)[O-])cc([N+](=O)[O-])cc2[N+](=O)[O-])cc1,inactive
3,COc1ccc2c(c1O)-c1c(O)c(OC)cc3c1[C@H](C2)[N+](C)(C)CC3.O=[N+]([O-])c1cc([N+](=O)[O-])c([O-])c([N+](=O)[O-])c1[O-],inactive
4,CC(=O)Nc1ccc([As](=O)(O)O)c(O)c1,inactive
5,CCNC(=S)/N=C(\N)N[N+](=O)[O-],inactive
6,O=C(NC1CCS(=O)(=O)C1)NP(=S)(Oc1ccccc1)Oc1ccccc1 (stereo not given),inactive
7,CCOC(=O)NC(Sc1ccccc1)C(Cl)(Cl)Cl (stereo not given),inactive
8,Cc1ccc(NP(=O)(Oc2cccc(C)c2)Oc2cccc(C)c2)nc1,inactive
9,c1ccc(-c2nn[nH]n2)c(-c2nn[nH]n2)c1,inactive
10,CCOC(=O)c1ccc(NP(C)(=O)Oc2ccc(F)cc2)cc1 (stereo not given),inactive
11,COc1ccc(OP(C)(=O)Nc2ccc(SC(F)(F)F)cc2)cc1 (stereo not given),inactive
12,Cc1ccc(OP(=O)(Nc2ccccn2)Oc2ccc(C)cc2)cc1,inactive
13,CC(=O)NC(SC(=S)N(CC(C)C)CC(C)C)C(Cl)(Cl)Cl (stereo not given),inactive
14,COC(=O)c1cc2c(s1)N=C(c1ccccc1)N(C)P2(=O)N1CCOCC1 (stereo not given),inactive
15,CCN(CC)CCCOC(=O)C(O)(c1ccccc1)C1CCCCC1 (stereo not given),inactive
16,CCC(=O)N1C2C3N(C(=O)CC)C1C1N(C(=O)CC)C(C(N1C(=O)CC)N3C(=O)CC)N2C(=O)CC,inactive
17,O=C(OC1CN2CCC1CC2)c1ccccc1 (stereo not given),inactive
18,CP(=O)(Nc1ccccc1)Oc1ccc(F)cc1 (stereo not given),inactive
19,CN(C)C(=O)Oc1noc2ccccc12,inactive
20,O=[N+]([O-])c1cc([N+](=O)[O-])c(OC2CCCCC2O)c([N+](=O)[O-])c1 (stereo not given),inactive
21,CCCCCOc1ccc(NP(C)(=O)Oc2ccc(Cl)cc2Cl)cc1 (stereo not given),inactive
22,Cc1ccccc1OP(=O)(Nc1ccccn1)Oc1ccccc1C,inactive
